## Binding of CDR-mutated scFvs to a peptide of the spike HR2 region

Antigen: PDVDLGDISGINAS, a 14-residue peptide of the SARS-CoV-2 spike HR2 region.

Each scFv is VH, a (GGGGS)3 linker, VL, as in the parent Ab-14, and differs from it in the CDRs of the light chain only.
VH: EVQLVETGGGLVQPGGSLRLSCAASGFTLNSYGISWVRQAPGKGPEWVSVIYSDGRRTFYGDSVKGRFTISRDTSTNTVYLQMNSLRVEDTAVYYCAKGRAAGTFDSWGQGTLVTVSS
VL: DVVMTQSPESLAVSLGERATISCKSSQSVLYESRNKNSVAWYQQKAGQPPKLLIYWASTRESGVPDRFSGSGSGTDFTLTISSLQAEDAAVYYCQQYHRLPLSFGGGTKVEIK

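The starting antibody came from a phage panning campaign against this peptide. These sequences belong to a second round, designed from the earlier measurements on random variants of the parent. Their group label is 14L_En_Gibbs (En: ensemble of fine-tuned language models; Gibbs: Gibbs sampling). In AlphaSeq, yeast of one mating type display the scFv and yeast of the other type display the target. Pairs that bind mate more often; barcode pairs of the diploids are counted by sequencing. Scores were corrected for input abundance and mapped to Kd with protein pairs of known affinity run in the same pool. Each pool was mated in six replicate cultures.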

Variants are written as CDR1, CDR2 and CDR3 of the light chain (limits as in the source). Parent: KSSQSVLYESRNKNSVA, WASTRES, QQYHRLPLS. Numbers give log10(Kd / nM), so 0 is 1 nM and 3 is 1 µM. Smaller is tighter. The mean shown is taken over the replicates in which the pair was detected. Where no diploid with the target was found in that replicate, the entry reads "ND": below detection, most likely a poor binder, though not proof of it. A sequence measured in both rounds can read differently, since the two assays cover different ranges. Background: pairings of all light chain designs with three empty control strains gave a value in 4% of cases (median 2.64, 5th percentile 1.59). Values in that range, when seen in few replicates, are hard to tell from nonspecific mating. The control count says in how many pairings with the empty strains this scFv gave a signal, with their mean in brackets. In the paper, a design with two or fewer of six values counts as a poor binder.

CDR-L1	CDR-L2	CDR-L3	log10 Kd (nM) by replicate	mean log10 Kd (nM)	empty controls
MLGNQPTSFRNNKNAIA	DDEARTS	QQYDRLPLS	0.04 ND 0.72 0.69 0.83 0.89	0.63	0 of 18
AISEHAFYGQRDENGIA	GADVRAK	QQYWRLPLT	0.65 0.57 0.98 0.92 1.16 0.54	0.80	0 of 18
ILNLSPMEHQIHMDAIA	QEAIRNA	QQYARLPLS	2.44 1.22 ND 0.75 2.20 1.63	1.65	0 of 18
QLDHQLQYDDANKKAVA	EMTEVTT	QQYHRLPLE	1.49 1.90 1.75 1.65 1.91 ND	1.74	0 of 18
ALTNEPESVNHHKNNVA	HTSKRCM	QQYARLPLS	0.81 0.95 1.76 1.70 1.27 0.96	1.24	0 of 18
FMQMQNDRMQDAAKNIA	DVDMRET	QQYARLPFM	0.60 0.53 0.98 0.69 0.57 0.51	0.65	1 of 18 (3.99)
KVAQGIFEGKRHSHNIA	EVSHLCD	QQYSRLPLE	0.05 0.27 0.09 0.20 0.59 0.36	0.26	0 of 18
QIAEQNMHVGIGANAIA	NATVRSA	QQYLRLPLM	0.87 0.23 0.05 0.60 0.44 0.80	0.50	2 of 18 (2.37)
NVGGEDPGQWYMKDSIA	GSSLRAE	QQYWRLPLM	0.53 0.28 0.20 0.11 -0.15 0.25	0.20	0 of 18
VLSDTIENQADEADNIA	DATETSK	QQYARLPLS	ND 1.39 ND 3.09 2.19 2.44	2.28	0 of 18
VLPDPLLMFEMQYHSIA	EGVQRME	QQYERLPLT	ND 1.08 1.44 1.22 1.19 1.06	1.20	0 of 18
QITNQTAGIMNGIDSIA	EETNLTD	QQYGHLPLS	ND ND ND ND 2.07 ND	2.07	1 of 18 (1.45)
HISIKEPGNWKMMDSVA	HSSLRAE	QQYWRLPLM	0.67 0.45 0.49 0.34 0.32 0.65	0.49	3 of 18 (2.67)
NLAMALEQGILIKNNIA	SDNLREN	QQYEKLPLI	0.88 1.32 0.75 0.73 1.36 0.88	0.99	1 of 18 (3.03)
QLQWYNTYATASASNIA	DGAQRLN	QQYMRLPLM	0.43 0.38 0.73 0.06 0.01 0.17	0.30	2 of 18 (3.32)
RLQIDDNGYIGMRNNVA	DGGMVRM	QQYARLPLM	0.35 0.40 0.26 0.31 0.15 0.20	0.28	0 of 18
KIAYQADMYGVQCNNVA	HADIREP	QQYFKLPLN	1.36 1.92 1.55 2.12 1.73 1.64	1.72	3 of 18 (3.37)
SMGWAHENGDNKMNNIA	DTTHLAY	QQYSRLPIT	0.81 0.58 0.45 0.43 0.82 0.51	0.60	0 of 18
SLHLYTLTEENNNNSIA	EKSYRAY	QQYSHLPLV	ND ND ND ND 2.24 ND	2.24	0 of 18
FMEMDFQENSGRHNSVA	SEEVKTR	QHYGRLPLS	ND ND ND ND ND ND	ND	0 of 18
KFDLLMNDEKSANKNVA	GNVHHMA	QQYERLPLS	0.63 0.57 0.68 0.85 0.57 0.92	0.70	0 of 18
RIRESMFYSHEGRRNIA	QAQIREI	QQYSQLPLF	0.36 0.66 0.71 0.56 0.84 0.71	0.64	0 of 18
ALSFEMESPHNHSNNVA	SESKLCS	QQYFTLPLS	ND ND ND ND ND ND	ND	0 of 18
ILEENVDDITEIGNSIA	ETNMVRS	QQYHRLPLA	2.08 1.22 0.95 0.79 1.76 1.22	1.34	0 of 18
KLDYQADMYGVQCNNVA	HADIREP	QQYFKLPLN	0.33 1.19 0.16 0.62 0.80 1.38	0.75	0 of 18
NLDKADYESRQMINNIA	DMSTLVA	QQYASLPLD	1.49 1.64 1.23 1.75 1.59 2.12	1.64	0 of 18
QLEVFPLQAGSTQAAIA	DASHSTP	QQYARLPLM	0.46 -0.12 0.33 0.31 -0.06 0.14	0.18	0 of 18
MISMEEAPASQNASSIA	QGGTRAE	QQYNRLPLC	1.47 2.17 1.25 1.09 0.94 0.98	1.32	0 of 18
VLPAHELMLESQIHSIA	NETKRME	QQYSRLPLV	0.87 0.51 0.50 0.43 0.43 0.92	0.61	3 of 18 (3.54)
NLSWKQIMQNMDSMAVA	QTEQREA	QQYARLPLS	0.65 0.32 0.89 0.46 0.26 0.57	0.52	1 of 18 (2.22)
SLHDMNMVGLANNANVA	NASQLFS	QHYFRLPLQ	-0.01 0.49 -0.12 0.19 0.32 0.07	0.16	0 of 18
KFAYQADMYGAQCNNVA	HADIREI	QQYFKLPLT	1.01 1.19 1.07 0.90 1.22 1.13	1.09	3 of 18 (2.35)
SIRQVGCDNYRNHSNIA	DATQIEK	QQYSMLPLS	1.17 0.93 0.69 0.68 1.09 0.63	0.87	0 of 18
QMGYALFHEDAKKKSIA	ENDVKVY	QQYAKLPLT	1.64 0.85 0.97 1.08 1.10 0.89	1.09	1 of 18 (2.48)
QFARAMYHGGNDNQNIA	DAMTYIK	QQYSRLPLI	1.27 ND ND 1.90 1.21 2.25	1.66	2 of 18 (2.07)
KIHELGVGNWKTANNIA	QTDLRMS	QSYNRLPLS	0.68 0.67 0.53 0.62 0.67 0.66	0.64	2 of 18 (2.54)
QFDTNLHYMGANKNSVA	EMTEKTI	QQYHRLPIE	1.01 1.13 1.49 1.85 1.35 1.18	1.33	0 of 18
QINVDRLMNYLSNDAIA	GKTLRVD	QQYMRLPLS	0.02 0.09 -0.27 0.14 -0.08 0.30	0.03	0 of 18

Excerpt, the first 5 entries:

CDR-L1,CDR-L2,CDR-L3,log10 Kd (nM) by replicate,mean log10 Kd (nM),empty controls
MLGNQPTSFRNNKNAIA,DDEARTS,QQYDRLPLS,0.04 ND 0.72 0.69 0.83 0.89,0.63,0 of 18
AISEHAFYGQRDENGIA,GADVRAK,QQYWRLPLT,0.65 0.57 0.98 0.92 1.16 0.54,0.80,0 of 18
ILNLSPMEHQIHMDAIA,QEAIRNA,QQYARLPLS,2.44 1.22 ND 0.75 2.20 1.63,1.65,0 of 18
QLDHQLQYDDANKKAVA,EMTEVTT,QQYHRLPLE,1.49 1.90 1.75 1.65 1.91 ND,1.74,0 of 18
ALTNEPESVNHHKNNVA,HTSKRCM,QQYARLPLS,0.81 0.95 1.76 1.70 1.27 0.96,1.24,0 of 18

Data: MIT Lincoln Laboratory AlphaSeq set, Li et al. 2023, doi:10.1038/s41467-023-39022-2, as distributed in FLAb.